From ChEMBL document CHEMBL5214932, “A closer look at N2,6-substituted 1,3,5-triazine-2,4-diamines: Advances in synthesis and biological activities” (Eur J Med Chem, 2022)
pIC50: −log10 of the molar value.

Key:
SK-OV-3 = experiment: Cytotoxicity against human SK-OV-3 cells assessed as cell growth inhibition; assay type: functional, cell-based
HL-60 = experiment: Cytotoxicity against human HL-60 cells assessed as cell growth inhibition; assay type: functional, cell-based

Work on `Cc1ccc(Cl)cc1-c1nc(N)nc(Nc2ccc(Br)cc2)n1` yielded a pIC50 (SK-OV-3) of 7.22 and a pIC50 (HL-60) of 7.22.
